{"source": "paper PMC9540496", "about": "(Clinical Pharmacology and Therapeutics, 2022)", "assay": "Phase I crossover DDI study: metformin", "settings": "90% CIs within acceptance range of 80–125%"}
{"smiles": "CN(C)C(=N)N=C(N)N", "note": "[Metformin, metformin]", "values": [{"measurement": "plasma exposure and CLr on co‐administration with abrocitinib", "result": "unaffected"}]}
